Measured values from patent US20210252008A1, “BIARYL COMPOSITIONS AND METHODS FOR MODULATING A KINASE CASCADE” (Athenex, Inc., priority 2004, published 2021).

Tests used:
Paxillin Y-31 = test: Intracellular phosphorylation levels: Paxillin Y-31; conditions: c-Src/NIH-3T3 cells; FIG. 4
FAK Tyr 925 = test: Intracellular phosphorylation levels: FAK Tyr 925; conditions: c-Src/NIH-3T3 and HT-29 cells; FIG. 2
[1] = system: osteoclasts on bone slices; test: Effect on bone resorption in vitro (bone slices)
She Y239/240 = test: Intracellular phosphorylation levels: She Y239/240; conditions: c-Src/NIH-3T3 and HT-29 cells; FIG. 3
[2] = system: Chinchillas, noise-induced hearing loss; test: Protection against noise-induced hearing loss; conditions: chinchilla; round window application; 4 kHz band noise 105 dB SPL four hours; day 1, 7, 21; in most cases
osteoclasts = test: Effect on osteoclast survival; conditions: 48 hours, RANKL and M-CSF
[3] = system: osteoclast precursors derived from spleen cells; test: Effect on osteoclast formation; conditions: 5 days, RANKL and M-CSF

SMILES: COc1cc2c(Nc3c(Cl)ccc4c3OCO4)ncnc2cc1OCCCN1CCCCC1
- phosphorylation of Paxillin Y-31 (Src trans-phosphorylation) (Paxillin Y-31): inhibited
- phosphorylation of FAK Tyr 925 (Src trans-phosphorylation) (FAK Tyr 925): inhibited
- number of osteoclasts on the bone slices vs untreated control ([1]; FIG. 20A): reduced the number of osteoclasts on the bone slices
- number of resorption pits on the bone slices vs untreated control ([1]; FIG. 20B): reduced the number of resorption pits
- number of TRAP-positive osteoclasts on the bone slices vs untreated control ([1]; TRAP stain, FIG. 21A): reduced the number of TRAP-positive osteoclasts
- number of resorption pits on the bone slices vs untreated control ([1]; Toluidine Blue stain, FIG. 21B): reduced the number of resorption pits
- phosphorylation of She Y239/240 (Src trans-phosphorylation) (She Y239/240): inhibited
- average dB threshold shifts of treated ears vs control [2]: lower
- survival of osteoclasts vs untreated control (osteoclasts; FIG. 18): inhibited the survival of osteoclasts
- number of TRAP-positive osteoclasts vs untreated control (survival) (osteoclasts; FIG. 19): reduced the number of TRAP-positive osteoclasts
- number of TRAP-positive osteoclasts vs untreated control (formation) ([3]; FIG. 17): reduced the number of TRAP-positive osteoclasts
- formation of osteoclasts vs untreated control ([3]; stained, FIG. 16): inhibited the formation of osteoclasts
